Measured values reported in patent US11597727B2 (THE REGENTS OF THE UNIVERSITY OF CALIFORNIA, priority 2018, dated 2023).

Tests used:
renal fibrosis = conditions: administered by intraperitoneal (IP) injection; cited from earlier work
mouse tracheal rings = assay: IL-13 enhanced contraction in mouse tracheal rings ex vivo

Question: Which “in vivo efficacy in a mouse model of renal fibrosis” value (renal fibrosis) does the source give for `CC1(C)SCN(S(=O)(=O)c2ccccc2)[C@@H]1C(=O)N[C@@H](CNC(=O)NCc1ccccc1)C(=O)O` here?
Answer: The value was “greatly improved in vivo efficacy”.

Question: And the “IL-13 enhanced contraction in mouse tracheal rings” value (mouse tracheal rings)?
Answer: The value was “protects against IL-13 enhanced contraction”.
